Earlier results in PMC4293901.
pKd: −log10 of the molar value.

Biological target: megalin (UniProt P98164)

transthyretin (from UniProt P02766)
pKd: 6.30
